Experimental data as given in patent US20100267774A1, “P38 MAP KINASE INHIBITORS” (CHROMA THERAPEUTICS LTD., priority 2007, published 2010).

Protein sequences, listed by entry. Tags and fused reporters are not part of them.
UniProt Q16539, whole entry: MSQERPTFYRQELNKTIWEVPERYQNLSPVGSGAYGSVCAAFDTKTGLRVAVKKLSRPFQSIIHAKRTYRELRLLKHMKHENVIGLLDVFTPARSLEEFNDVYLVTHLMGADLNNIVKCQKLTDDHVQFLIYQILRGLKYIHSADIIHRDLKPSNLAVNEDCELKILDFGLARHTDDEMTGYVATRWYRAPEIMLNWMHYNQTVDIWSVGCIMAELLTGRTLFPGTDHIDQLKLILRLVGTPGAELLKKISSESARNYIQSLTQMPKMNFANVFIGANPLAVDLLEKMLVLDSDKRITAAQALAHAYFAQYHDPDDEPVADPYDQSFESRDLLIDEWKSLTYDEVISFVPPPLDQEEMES

Target: T1, p38 MAP Kinase a (Homo sapiens, UniProt Q16539)
T1 construct: purchased Upstate (Dundee UK)
Test: p38 MAP Kinase activity, radiometric filter-binding assay (Upstate)
Format: biochemical
Details: IC50 range; read-out: Inhibitor activity versus p38 MAPKa
Experimental: The ability of compounds to inhibit p38 MAP a Kinase activity was measured in an assay performed by Upstate (Dundee UK). In a final reaction volume of 25 μL, p38 MAP Kinase a (5-10 mU) is incubated with 25 mM Tris pH 7.5, 0.002 mMEGTA, 0.33 mg/mL myelin basic protein, 10 mM MgAcetate and [g-33P-ATP] (specific activity approx. 500 cpm/pmol, concentration as required). The reaction is initiated by the addition of the MgATP mix. After incubation for 40 minutes at room temperature, the reaction is stopped by the addition of 5 μL of a 3% phosphoric acid solution. 10 μL of the reaction is then spotted onto a P30 filtermat and washed three times for 5 minutes in 75 mM phosphoric acid and once in methanol prior to drying and scintillation counting.
Duplicate data points are generated from a 1/3 log dilution series of a stock solution in DMSO. Nine dilutions steps are made from a top concentration of 10 μM, and a ‘no compound’ blank is included. The standard radiometric filter-binding assay is performed at an ATP concentration at, or close to, the Km. Data from scintillation counts are collected and subjected to free-fit analysis by Prism software. From the curve generated, the concentration giving 50% inhibition is determined and reported.

SMILES: CC(C)(C)OC(=O)[C@@H](NCCc1cc(F)c(-n2c(N)c(C(=O)c3ccc(F)cc3F)ccc2=O)c(F)c1)c1ccccc1 [Example 35, tert-butyl (2S)-[(2-{4-[6-amino-5-(2,4-difluorobenzoyl)-2-oxopyridin-1(2H)-yl]-3,5-difluorophenyl}ethyl)amino](phenyl)acetate]
- IC50: < 100 nM
